SMILES strings stand for the structures. Only a part is listed here, and it is no random draw. Activity calls are given as the source filed them. The call rests on the fitted dose curve; in most records, active means well fitted inhibition curve with a large enough effect; inconclusive means small, poorly fitted or top-dose-only effect; inactive means no such curve, though single readings can be large or run the other way.
Potency means the concentration at half of the fitted maximal effect.

For this test, the target named is Schistosoma mansoni thioredoxin glutathione reductase (TGR) (UniProt Q962Y6). The experiment in a line: qHTS Assay for the Inhibitors of Schistosoma Mansoni Peroxiredoxins. Further: nearly all actives have a fitted effect of over 60% in size. As to conditions: purified TGR, DTNB reduction, TNB absorbance 405 nm. The text has this: Schistosomiasis is a major neglected tropical disease that currently affects over 200 million. It is caused by different species of flatworms, such as Schistosoma mansoni. Over the last century, drugs to treat the disease have evolved from potassium antimonyl tartrate, artemisinin, oxamniquine, to praziquantel, with praziquantel remaining the universally-used single drug of choice over the past three decades. However, transmission rates have changed little with praziquantel, and there is evidence for the development of drug resistant parasites. Because there is currently no suitable alternative therapy available, there is an urgent need to identify new targets and drugs for schistosomiasis treatment. […] Recently, a quantitative high-throughput screen of the NIH Molecular Libraries Small Molecule Repository (MLSMR, ~71K at the time of the screen in 2007) was performed using an assay that targeted both TGR and peroxiredoxin2 (Prx2, an H2O2-reducing enzymatic component of the S. mansoni redox "firewall") by following the decrease of NADPH fluorescence. […] In addition, the fluorescence assay was also subject to fluorescence interference from compound library members. […] The assay followed the reduction of 5, 5'-dithiobis (2-nitrobenzoic acid) (DTNB) (Ellman's reagent) by NADPH and measured the increase in absorbance at 412 nm of the reaction product, TNB. […]
`CC[n+]1c(/C=C/N(C)c2ccccc2)oc2ccc(Cl)cc21`: the Potency is active: 50.1 µM.

As to `CC[n+]1c(/C=C/N(C)c2ccccc2)oc2ccc(F)cc21`, the Potency is active: 50.1 µM.

(Values after PubChem BioAssay AID485364 (National Center for Advancing Translational Sciences (NCATS), 2010).)
